Values quoted from earlier work in US8680094B2, “1, 4-benzoxazine compounds and derivatives thereof as therapeutic drugs for the treatment of neurodegenerative conditions” (Board of Regents, The University of Texas System, priority 2008, dated 2014).

By UniProt entry, the sequences of proteins in these tests, tags left out.
UniProt P15056, whole entry: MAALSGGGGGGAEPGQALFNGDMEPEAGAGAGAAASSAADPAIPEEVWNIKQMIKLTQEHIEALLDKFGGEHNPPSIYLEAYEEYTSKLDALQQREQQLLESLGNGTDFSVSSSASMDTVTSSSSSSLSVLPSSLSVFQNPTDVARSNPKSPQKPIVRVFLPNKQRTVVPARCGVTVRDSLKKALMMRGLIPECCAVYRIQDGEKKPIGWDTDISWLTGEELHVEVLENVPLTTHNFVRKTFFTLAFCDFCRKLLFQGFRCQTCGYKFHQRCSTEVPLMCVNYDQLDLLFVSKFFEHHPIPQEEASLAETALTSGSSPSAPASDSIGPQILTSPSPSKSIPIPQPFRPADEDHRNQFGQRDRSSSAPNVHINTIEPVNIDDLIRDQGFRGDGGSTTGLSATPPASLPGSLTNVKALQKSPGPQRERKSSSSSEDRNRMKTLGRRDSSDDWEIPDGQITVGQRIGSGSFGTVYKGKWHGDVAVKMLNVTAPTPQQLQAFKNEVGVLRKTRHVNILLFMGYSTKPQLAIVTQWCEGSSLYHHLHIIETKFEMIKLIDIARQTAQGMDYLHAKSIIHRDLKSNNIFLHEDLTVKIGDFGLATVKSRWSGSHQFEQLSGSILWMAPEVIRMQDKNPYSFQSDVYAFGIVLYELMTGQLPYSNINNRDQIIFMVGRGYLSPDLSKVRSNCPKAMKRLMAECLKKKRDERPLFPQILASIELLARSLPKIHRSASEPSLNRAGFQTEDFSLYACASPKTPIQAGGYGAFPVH

Molecular target: T1, B-Raf (Homo sapiens, UniProt P15056)
T1 construct: in some cases SignalChem; host or cells: Sf9 insect cells (baculovirus)
Settings: stated for the reference compound, no value; cited from earlier work

O=C1Nc2ccc(I)cc2C1=Cc1cc(Br)c(O)c(Br)c1 [GW5074, 5-Iodo-3-[(3′,5′-dibromo-4′-hydroxyphenyl)methylene]-2-indolinone]
inhibition of B-Raf: inhibits B-Raf
